Results published in EP1991561B1, “BRANCHED MULTIMERIC PEPTIDES FOR TUMOR DIAGNOSIS AND THERAPY” (Universita' Degli Studi di Siena, priority 2006, dated 2007).

Amino acid sequences for entries named in this document (tags omitted).
UniProt P30989, whole entry: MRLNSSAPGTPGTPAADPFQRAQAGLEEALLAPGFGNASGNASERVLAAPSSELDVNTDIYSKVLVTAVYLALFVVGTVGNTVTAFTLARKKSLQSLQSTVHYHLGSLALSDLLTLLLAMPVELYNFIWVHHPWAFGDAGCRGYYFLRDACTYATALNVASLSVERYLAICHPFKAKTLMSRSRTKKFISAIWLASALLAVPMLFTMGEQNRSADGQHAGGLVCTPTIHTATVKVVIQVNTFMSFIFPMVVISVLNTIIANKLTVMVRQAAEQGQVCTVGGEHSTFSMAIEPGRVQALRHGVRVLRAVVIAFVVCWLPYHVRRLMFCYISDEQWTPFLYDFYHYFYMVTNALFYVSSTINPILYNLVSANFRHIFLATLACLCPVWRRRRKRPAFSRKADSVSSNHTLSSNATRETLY

Molecular target: T1, NT receptors (NTR) (Homo sapiens, UniProt P30989)
T1 construct: HT29 human adenocarcinoma cell membranes, that over-express NTR; endogenous in cells; host or cells: HT29 human colon adenocarcinoma cell membranes
Assay: Inhibition of 125I-NT binding to HT29 cell membranes
Details: displacement of 125I-NT, HT29 human adenocarcinoma cell membranes

Substance: tetrameric NT(8-13)4-PEG-Tetramethyl rhodamine [NT4(8-13)-TMR]
- IC50: 0.02 µM
